One block for each compound: values may come before it.
Experiments:
[1] = target: PSEN1 L173A–APH1A γ-secretase complex (Homo sapiens, UniProt P49768, L173A); assay: Aβ40 secretion, MEF cell pool restored with PSEN1 L173A–APH1A; settings: decimal comma
[2] = target: PSEN1 WT–APH1A γ-secretase complex (Homo sapiens, UniProt P49768); assay: Aβ40 secretion, MEF cell pool restored with PSEN1 WT–APH1A; settings: decimal comma
[3] = target: PSEN1 I168A–APH1A γ-secretase complex (Homo sapiens, UniProt P49768, I168A); assay: Aβ40 secretion, MEF cell pool restored with PSEN1 I168A–APH1A; settings: decimal comma
[4] = target: PSEN1 L172A–APH1A γ-secretase complex (Homo sapiens, UniProt P49768, L172A); assay: Aβ40 secretion, MEF cell pool restored with PSEN1 L172A–APH1A
[5] = target: PSEN1 T147A–APH1A γ-secretase complex (Homo sapiens, UniProt P49768, T147A); assay: Aβ40 secretion, MEF cell pool restored with PSEN1 T147A–APH1A; settings: read-out: IC50 μM (95% CI μM), Aβ40 secretion; PSEN1 T147A (TM2)–APH1A cell pool; N = 3 to 4; mean (95% CI); decimal comma
[6] = target: PSEN1 I229A–APH1A γ-secretase complex (Homo sapiens, UniProt P49768, I229A); assay: Aβ40 secretion, MEF cell pool restored with PSEN1 I229A–APH1A; settings: decimal comma
[7] = target: PSEN1 M146A–APH1A γ-secretase complex (Homo sapiens, UniProt P49768, M146A); assay: Aβ40 secretion, MEF cell pool restored with PSEN1 M146A–APH1A; settings: decimal comma
[8] = target: PSEN1 M233A–APH1A γ-secretase complex (Homo sapiens, UniProt P49768, M233A); assay: Aβ40 secretion, MEF cell pool restored with PSEN1 M233A–APH1A; settings: decimal comma
[9] = target: PSEN1 S169A–APH1A γ-secretase complex (Homo sapiens, UniProt P49768, S169A); assay: Aβ40 secretion, MEF cell pool restored with PSEN1 S169A–APH1A; settings: decimal comma
[10] = target: PSEN1 I387A–APH1A γ-secretase complex (Homo sapiens, UniProt P49768, I387A); assay: Aβ40 secretion, MEF cell pool restored with PSEN1 I387A–APH1A; settings: decimal comma
[11] = target: PSEN1 W165A–APH1A γ-secretase complex (Homo sapiens, UniProt P49768, W165A); assay: Aβ40 secretion, MEF cell pool restored with PSEN1 W165A–APH1A; settings: decimal comma
[12] = target: PSEN1 F388A–APH1A γ-secretase complex (Homo sapiens, UniProt P49768, F388A); assay: Aβ40 secretion, MEF cell pool restored with PSEN1 F388A–APH1A; settings: decimal comma
[13] = tested on: PSEN1 versus PSEN2 γ-secretase complexes; assay: Comparison of the four MEF cell lines: selectivity between γ-secretase complexes (IC50 ratios); type: cell-based, human
[14] = target: PSEN1-APH1B γ-secretase complex (Homo sapiens, UniProt P49768); assay: Aβ40 secretion by MEF cell line expressing only PSEN1-APH1B γ-secretase (APP-C99-GFP reporter); type: cell-based

IC50 fold change to WT ([1]; PSEN1 L173A–APH1A cell pool): 2,399 fold | IC50 ([1]; read-out: IC50 μM (95% CI μM), Aβ40 secretion, PSEN1 L173A (TM3)–APH1A cell pool, N = 3 to 4, mean (95% CI)): 1.13 µM | IC50 fold change to WT ([2]; PSEN1 WT–APH1A cell pool (reference)): 1 fold | IC50 ([2]; read-out: IC50 μM (95% CI μM), Aβ40 secretion, PSEN1 WT–APH1A cell pool, N = 3 to 4, mean (95% CI)): 0.47 µM | IC50 fold change to WT ([3]; PSEN1 I168A–APH1A cell pool): 0,671 fold | IC50 ([3]; read-out: IC50 μM (95% CI μM), Aβ40 secretion, PSEN1 I168A (TM3)–APH1A cell pool, N = 3 to 4, mean (95% CI)): 0.315 µM | increase in binding affinity by alanine substitution of L172 ([4]; PSEN1 L172A versus WT): 1.5 fold | IC50 fold change to WT ([4]; PSEN1 L172A–APH1A cell pool, decimal comma): 0,640 fold | IC50 ([4]; read-out: IC50 μM (95% CI μM), Aβ40 secretion, PSEN1 L172A (TM3)–APH1A cell pool, N = 3 to 4, mean (95% CI), decimal comma): 0.301 µM | IC50 [5]: 27.9 µM | IC50 fold change to WT [6]: 2,880 fold | IC50 fold change to WT ([7]; PSEN1 M146A–APH1A cell pool): 1,941 fold | IC50 ([7]; read-out: IC50 μM (95% CI μM), Aβ40 secretion, PSEN1 M146A (TM2)–APH1A cell pool, N = 3 to 4, mean (95% CI)): 0.913 µM | IC50 fold change to WT ([8]; PSEN1 M233A–APH1A cell pool): 0,955 fold | IC50 ([8]; read-out: IC50 μM (95% CI μM), Aβ40 secretion, PSEN1 M233A (TM5)–APH1A cell pool, N = 3 to 4, mean (95% CI)): 0.449 µM | IC50 fold change to WT ([9]; PSEN1 S169A–APH1A cell pool): 0,978 fold | IC50 ([9]; read-out: IC50 μM (95% CI μM), Aβ40 secretion, PSEN1 S169A (TM3)–APH1A cell pool, N = 3 to 4, mean (95% CI)): 0.46 µM | IC50 fold change to WT ([10]; PSEN1 I387A–APH1A cell pool): 1,584 fold | IC50 ([10]; read-out: IC50 μM (95% CI μM), Aβ40 secretion, PSEN1 I387A (TM7)–APH1A cell pool, N = 3 to 4, mean (95% CI)): 0.745 µM | IC50 fold change to WT ([11]; PSEN1 W165A–APH1A cell pool): 1,607 fold | IC50 ([11]; read-out: IC50 μM (95% CI μM), Aβ40 secretion, PSEN1 W165A (TM3)–APH1A cell pool, N = 3 to 4, mean (95% CI)): 0.755 µM | IC50 fold change to WT ([12]; PSEN1 F388A–APH1A cell pool): 1,782 fold | IC50 ([12]; read-out: IC50 μM (95% CI μM), Aβ40 secretion, PSEN1 F388A (TM7)–APH1A cell pool, N = 3 to 4, mean (95% CI)): 0.838 µM
Structure (SMILES): CC(C)C[C@H](NC(=O)[C@H](Cc1ccccc1)C[C@@H](O)[C@H](Cc1ccccc1)NC(=O)OC(C)(C)C)C(=O)N[C@@H](Cc1ccccc1)C(=O)O (single isomer, unassigned)

fold less potency for PSEN1–APH1B ([14]; compared with MRK-560): 60 fold | IC50 ([14]; read-out: IC50, Aβ40 peptides, MEF PSEN1-APH1B cell line, 8 h, Beerse site unless otherwise indicated): 25.8 nM
Structure (SMILES): O=S(=O)(c1ccc(Cl)cc1)C1(c2cc(F)ccc2F)CCCCC1
selectivity for PSEN1 complexes versus PSEN2 complexes [13]: 11–41 fold
